Values of other authors, collected in US12172965B2, “Drug conjugate comprising quinoline derivatives” (UNIVERSITE PARIS-SACLAY, priority 2018, dated 2024).

Tested on: cell line SKBR3
Settings: prior-art ADC, PCT/EP2018/058168; cited from earlier work

## Trastuzumab-VC-PAB-ICQO-I
  IC50 against the cell line SKBR3: 27 µg/mL
